Test results as given in ChEMBL document CHEMBL3997841, “Continued optimization of the M5 NAM ML375: Discovery of VU6008667, an M5 NAM with high CNS penetration and a desired short half-life in rat for addiction studies” (Bioorg Med Chem Lett, 2017).

Sequences of proteins named here, by UniProt entry; tags and fusion partners are left off.
UniProt P08912, whole entry: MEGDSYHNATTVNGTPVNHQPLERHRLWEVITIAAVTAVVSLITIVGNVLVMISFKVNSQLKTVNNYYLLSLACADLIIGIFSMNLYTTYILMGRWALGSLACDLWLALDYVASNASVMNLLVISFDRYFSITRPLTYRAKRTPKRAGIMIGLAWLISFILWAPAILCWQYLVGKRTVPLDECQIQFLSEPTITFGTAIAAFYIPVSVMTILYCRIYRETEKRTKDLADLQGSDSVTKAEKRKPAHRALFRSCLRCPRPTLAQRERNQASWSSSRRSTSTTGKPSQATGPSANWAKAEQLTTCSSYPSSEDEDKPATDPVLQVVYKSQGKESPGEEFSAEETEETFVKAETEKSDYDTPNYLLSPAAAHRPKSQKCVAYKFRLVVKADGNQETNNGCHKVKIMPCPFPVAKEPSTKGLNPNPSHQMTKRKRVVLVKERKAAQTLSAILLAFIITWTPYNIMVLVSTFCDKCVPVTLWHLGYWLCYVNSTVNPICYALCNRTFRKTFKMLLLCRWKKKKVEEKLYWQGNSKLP

Biological target: Muscarinic acetylcholine receptor M5 (Homo sapiens, UniProt P08912)
Experiment: Negative allosteric modulation of human M5 receptor expressed in CHO cells assessed as inhibition of acetyl choline-induced calcium mobilization at 10 uM preincubated for 150 secs followed by acetyl choline addition by Fluo-4-AM dye based fluorescence assay relative to acetyl choline; values are per cent of control

Row | residual activity [%] | SMILES
1 | 2.9 | Cc1cc(C23c4ccccc4C(=O)N2CCN3C(=O)c2ccc(F)c(F)c2)ccc1Cl (racemic)
2 | 2.3 | Cc1cc([C@@]23c4ccccc4C(=O)N2CCN3C(=O)c2ccc(F)c(F)c2)ccc1Cl
